Target: human A2b receptor subtype (Homo sapiens, UniProt P29275)
Test: Adenosine 2b receptor subtype competition radioligand binding, [3H] DPCPX, HEK293 membranes
Details: read-out: Binding Ki (nM) A2b; Table 13

By UniProt entry, the sequences of proteins in these tests, tags left out.
UniProt P29275, whole entry: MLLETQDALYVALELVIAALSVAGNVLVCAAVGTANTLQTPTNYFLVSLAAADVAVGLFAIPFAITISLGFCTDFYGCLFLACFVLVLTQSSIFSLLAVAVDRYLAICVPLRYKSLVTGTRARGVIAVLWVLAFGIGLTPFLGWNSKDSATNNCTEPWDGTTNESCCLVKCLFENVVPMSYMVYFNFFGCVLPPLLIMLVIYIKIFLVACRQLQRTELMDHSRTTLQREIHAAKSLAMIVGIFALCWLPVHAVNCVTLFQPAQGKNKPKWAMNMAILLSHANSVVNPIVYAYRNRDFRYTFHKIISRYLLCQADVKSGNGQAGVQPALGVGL

Cc1cc2c(N[C@H]3CC[C@H](O)CC3)nc(-c3ccccc3)nc2[nH]1 (relative stereo)
Ki: 168 nM

— patent publication EP1731520A1
